Laboratory results taken from BindingDB's records for doi:10.1016/0006-291x(92)90654-4 (Veterans Affairs Medical Center, 1992).

Chains of the proteins cited; added tags and fusions are not shown.
UniProt P28222, whole entry: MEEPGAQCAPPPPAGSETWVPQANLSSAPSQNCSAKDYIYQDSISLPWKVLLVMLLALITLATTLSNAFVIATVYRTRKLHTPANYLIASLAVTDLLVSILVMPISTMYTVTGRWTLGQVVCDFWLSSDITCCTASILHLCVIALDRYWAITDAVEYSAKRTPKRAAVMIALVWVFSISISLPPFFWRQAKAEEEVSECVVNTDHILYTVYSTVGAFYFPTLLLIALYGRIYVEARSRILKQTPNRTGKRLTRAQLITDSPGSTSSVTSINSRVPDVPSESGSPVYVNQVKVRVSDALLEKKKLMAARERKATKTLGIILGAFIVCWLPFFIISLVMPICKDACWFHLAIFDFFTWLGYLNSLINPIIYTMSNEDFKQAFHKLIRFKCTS

Target: 5-hydroxytryptamine receptor 1B (Homo sapiens, UniProt P28222)

| Ki | Structure (SMILES) |
| --- | --- |
| 640 nM | CC(C)NC[C@H](O)COc1cccc2ccccc12 [Propanolol,(+/-)] |
| 5 nM | COC(=O)[C@@H]1[C@H]2C[C@H]3c4[nH]c5ccccc5c4CCN3C[C@@H]2CC[C@@H]1O [yohimbic acid methyl ester] |
